How the values were obtained:
P53G245S-FL or -Δ22 = experiment: qPCR p53-DNA binding plate assay, antibody capture (Cosmo IVT); format: biochemical, human; conditions: translated with 1, 10 or 100 μM peptide
[1] = test system: H1299 cells expressing G245S, R273H or R248Q mutant p53; experiment: Stabilization of p53 targets (western blot); format: cell-based, human; conditions: Tat-conjugated peptides, 5, 20 or 50 uM
Np53 R273H-Δ22 = biological target: T1, Np53 R273H-Δ22 (Homo sapiens, UniProt P04637, R273H); experiment: qPCR Nano tagged p53-DNA binding assay (Novagen IVT); format: biochemical; conditions: 200 μM peptide
T1 construct: made in house; host or cells: cell-free Novagen EcoPro bacterial lysate IVT, used unpurified

p53-R273H-FL = p53-R273H-FL (Homo sapiens, UniProt P04637, R273H); experiment: ELISA peptide-mutant p53 interaction (p53 IVT-translated with biotinylated peptide); format: binding
[2] = 25 μM peptide, Bp53-10.1 antibody
[3] = p53 mutant R273H (Pap-TAL: R273H/G245S)

With M P H L M A C [Pap-MPH] the “sequence-specific DNA binding to p21 3′ site and PUMA-BS2 REs” value (P53G245S-FL or -Δ22) was “little to no sequence-specific DNA binding”.

In the case of S P T T N H [Pap-SPT], the “sequence-specific DNA binding to p21 3′ site and PUMA-BS2 REs” value (P53G245S-FL or -Δ22) is reported as “little to no sequence-specific DNA binding” and the “stabilization of p53 protein targets” value [1] is reported as “weakly active”.

In the case of VRHQHVGATILGWK [Pap-VRH], the “RE-binding, PUMA-BS2 RE only” value (Np53 R273H-Δ22) is reported as “appreciable increase in RE-binding”, the “fold binding over 200 μM 'peptide-only' control” value (p53-R273H-FL; [2]) is reported as 10 fold and the “fold binding over 'no-p53' control” value (p53-R273H-FL; [2]) is reported as roughly 18 fold. For the same substance, the “background peptide binding in absence of p53 (peptide only control), interaction with DO-1 antibody” value (p53-R273H-FL; 200 μM peptide, DO-1) was “high levels of background peptide binding”, the “Binding preference for peptide terminal (level)” value (p53-R273H-FL; [3]) was “No” and the “Lowest effective concentration” value (p53-R273H-FL; [3]) was 25 µM. The Maximum fold binding (p53-R273H-FL; [3]) was 18 fold.

Reference: patent US9517252B2, “p53 activating peptides” (Agency for Science, Technology and Research, priority 2011, dated 2016)
